Measured values taken from ChEMBL document CHEMBL5107967, “Targeting EZH2 for cancer therapy: From current progress to novel strategies” (Eur J Med Chem, 2022).

The chains behind the UniProt entries cited, without tags or fusion partners.
UniProt Q15910, whole entry: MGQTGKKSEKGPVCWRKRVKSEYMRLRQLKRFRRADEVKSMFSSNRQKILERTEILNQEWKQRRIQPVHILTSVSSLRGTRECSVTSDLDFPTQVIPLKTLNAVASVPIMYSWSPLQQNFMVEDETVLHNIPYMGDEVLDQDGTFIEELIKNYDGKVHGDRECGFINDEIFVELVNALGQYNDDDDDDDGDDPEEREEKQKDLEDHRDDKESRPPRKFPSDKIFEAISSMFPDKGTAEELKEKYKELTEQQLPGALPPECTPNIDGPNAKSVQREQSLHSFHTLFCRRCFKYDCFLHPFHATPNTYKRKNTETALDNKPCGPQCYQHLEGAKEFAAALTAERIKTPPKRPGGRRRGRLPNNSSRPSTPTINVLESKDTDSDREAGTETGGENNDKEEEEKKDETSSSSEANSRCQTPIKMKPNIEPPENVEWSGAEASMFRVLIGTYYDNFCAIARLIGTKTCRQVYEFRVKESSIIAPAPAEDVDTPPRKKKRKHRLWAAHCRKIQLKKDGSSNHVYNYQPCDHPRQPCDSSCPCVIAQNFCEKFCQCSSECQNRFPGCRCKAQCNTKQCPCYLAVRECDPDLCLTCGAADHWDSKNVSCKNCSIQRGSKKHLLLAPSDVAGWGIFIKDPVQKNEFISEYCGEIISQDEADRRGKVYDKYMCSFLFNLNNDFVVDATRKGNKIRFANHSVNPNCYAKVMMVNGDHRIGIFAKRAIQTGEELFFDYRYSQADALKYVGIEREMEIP

Target: Histone-lysine N-methyltransferase EZH2 (Homo sapiens, UniProt Q15910)

CCN1CCN(c2ccc(-c3cc(C(=O)NCc4c(C)cc(C)[nH]c4=O)c(C)c4c3O[C@](C)(CN3CCOCC3)O4)cn2)CC1
IC50: 24 nM
